# This is a selection; strong and weak results do not stand in their true shares. Calls of active or inactive are those of the source. Cut-off read from the data, not from the text of the source: active = inhibition above about 40%; inactive = the rest.
# By UniProt entry, the sequences of proteins in these tests, tags left out.
# UniProt Q01196, whole entry, looked up: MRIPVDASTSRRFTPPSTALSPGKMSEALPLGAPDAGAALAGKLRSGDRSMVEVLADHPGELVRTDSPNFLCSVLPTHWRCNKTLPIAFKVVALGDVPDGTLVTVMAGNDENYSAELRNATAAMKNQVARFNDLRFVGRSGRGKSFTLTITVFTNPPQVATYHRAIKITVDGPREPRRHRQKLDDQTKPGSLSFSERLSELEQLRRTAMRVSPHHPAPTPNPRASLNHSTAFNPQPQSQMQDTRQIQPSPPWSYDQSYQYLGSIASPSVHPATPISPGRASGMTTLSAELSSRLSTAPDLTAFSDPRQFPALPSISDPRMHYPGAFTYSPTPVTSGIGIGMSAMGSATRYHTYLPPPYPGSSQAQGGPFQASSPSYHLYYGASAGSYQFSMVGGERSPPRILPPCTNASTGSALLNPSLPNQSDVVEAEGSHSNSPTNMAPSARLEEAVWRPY
# UniProt Q13951, whole entry, looked up: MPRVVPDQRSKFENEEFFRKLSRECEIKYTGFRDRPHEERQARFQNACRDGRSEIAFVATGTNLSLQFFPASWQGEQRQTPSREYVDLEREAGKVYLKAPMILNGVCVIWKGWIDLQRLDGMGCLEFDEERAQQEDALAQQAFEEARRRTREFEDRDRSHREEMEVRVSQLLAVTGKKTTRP
# Molecular target: Runt-related transcription factor 1 (Homo sapiens) + Core-binding factor subunit beta (Homo sapiens) (UniProt Q01196+Q13951)
# Assay: inhibitors of RUNX1 Runt–CBFb binding, biochemical, TR-FRET (AID 1502)
# Settings: TR-FRET RUNX1 Runt domain-CBFb binding; at 20 µM; hits give high values
smiles,measurement,value
Cc1cc(SC(NC(=O)c2ccc(F)cc2)C(Cl)(Cl)Cl)ncn1 (stereo unspecified),inhibition,inactive: -29.9%

# — PubChem BioAssay AID1502 (Sanford-Burnham Center for Chemical Genomics, 2009)
